# Source: patent US8877759B2, “Aminopyrazines as ATR kinase inhibitors” (Vertex Pharnaceuticals Incorporated, priority 2011, dated 2014)
# The chains behind the UniProt entries cited, without tags or fusion partners.
# UniProt Q13535, whole entry: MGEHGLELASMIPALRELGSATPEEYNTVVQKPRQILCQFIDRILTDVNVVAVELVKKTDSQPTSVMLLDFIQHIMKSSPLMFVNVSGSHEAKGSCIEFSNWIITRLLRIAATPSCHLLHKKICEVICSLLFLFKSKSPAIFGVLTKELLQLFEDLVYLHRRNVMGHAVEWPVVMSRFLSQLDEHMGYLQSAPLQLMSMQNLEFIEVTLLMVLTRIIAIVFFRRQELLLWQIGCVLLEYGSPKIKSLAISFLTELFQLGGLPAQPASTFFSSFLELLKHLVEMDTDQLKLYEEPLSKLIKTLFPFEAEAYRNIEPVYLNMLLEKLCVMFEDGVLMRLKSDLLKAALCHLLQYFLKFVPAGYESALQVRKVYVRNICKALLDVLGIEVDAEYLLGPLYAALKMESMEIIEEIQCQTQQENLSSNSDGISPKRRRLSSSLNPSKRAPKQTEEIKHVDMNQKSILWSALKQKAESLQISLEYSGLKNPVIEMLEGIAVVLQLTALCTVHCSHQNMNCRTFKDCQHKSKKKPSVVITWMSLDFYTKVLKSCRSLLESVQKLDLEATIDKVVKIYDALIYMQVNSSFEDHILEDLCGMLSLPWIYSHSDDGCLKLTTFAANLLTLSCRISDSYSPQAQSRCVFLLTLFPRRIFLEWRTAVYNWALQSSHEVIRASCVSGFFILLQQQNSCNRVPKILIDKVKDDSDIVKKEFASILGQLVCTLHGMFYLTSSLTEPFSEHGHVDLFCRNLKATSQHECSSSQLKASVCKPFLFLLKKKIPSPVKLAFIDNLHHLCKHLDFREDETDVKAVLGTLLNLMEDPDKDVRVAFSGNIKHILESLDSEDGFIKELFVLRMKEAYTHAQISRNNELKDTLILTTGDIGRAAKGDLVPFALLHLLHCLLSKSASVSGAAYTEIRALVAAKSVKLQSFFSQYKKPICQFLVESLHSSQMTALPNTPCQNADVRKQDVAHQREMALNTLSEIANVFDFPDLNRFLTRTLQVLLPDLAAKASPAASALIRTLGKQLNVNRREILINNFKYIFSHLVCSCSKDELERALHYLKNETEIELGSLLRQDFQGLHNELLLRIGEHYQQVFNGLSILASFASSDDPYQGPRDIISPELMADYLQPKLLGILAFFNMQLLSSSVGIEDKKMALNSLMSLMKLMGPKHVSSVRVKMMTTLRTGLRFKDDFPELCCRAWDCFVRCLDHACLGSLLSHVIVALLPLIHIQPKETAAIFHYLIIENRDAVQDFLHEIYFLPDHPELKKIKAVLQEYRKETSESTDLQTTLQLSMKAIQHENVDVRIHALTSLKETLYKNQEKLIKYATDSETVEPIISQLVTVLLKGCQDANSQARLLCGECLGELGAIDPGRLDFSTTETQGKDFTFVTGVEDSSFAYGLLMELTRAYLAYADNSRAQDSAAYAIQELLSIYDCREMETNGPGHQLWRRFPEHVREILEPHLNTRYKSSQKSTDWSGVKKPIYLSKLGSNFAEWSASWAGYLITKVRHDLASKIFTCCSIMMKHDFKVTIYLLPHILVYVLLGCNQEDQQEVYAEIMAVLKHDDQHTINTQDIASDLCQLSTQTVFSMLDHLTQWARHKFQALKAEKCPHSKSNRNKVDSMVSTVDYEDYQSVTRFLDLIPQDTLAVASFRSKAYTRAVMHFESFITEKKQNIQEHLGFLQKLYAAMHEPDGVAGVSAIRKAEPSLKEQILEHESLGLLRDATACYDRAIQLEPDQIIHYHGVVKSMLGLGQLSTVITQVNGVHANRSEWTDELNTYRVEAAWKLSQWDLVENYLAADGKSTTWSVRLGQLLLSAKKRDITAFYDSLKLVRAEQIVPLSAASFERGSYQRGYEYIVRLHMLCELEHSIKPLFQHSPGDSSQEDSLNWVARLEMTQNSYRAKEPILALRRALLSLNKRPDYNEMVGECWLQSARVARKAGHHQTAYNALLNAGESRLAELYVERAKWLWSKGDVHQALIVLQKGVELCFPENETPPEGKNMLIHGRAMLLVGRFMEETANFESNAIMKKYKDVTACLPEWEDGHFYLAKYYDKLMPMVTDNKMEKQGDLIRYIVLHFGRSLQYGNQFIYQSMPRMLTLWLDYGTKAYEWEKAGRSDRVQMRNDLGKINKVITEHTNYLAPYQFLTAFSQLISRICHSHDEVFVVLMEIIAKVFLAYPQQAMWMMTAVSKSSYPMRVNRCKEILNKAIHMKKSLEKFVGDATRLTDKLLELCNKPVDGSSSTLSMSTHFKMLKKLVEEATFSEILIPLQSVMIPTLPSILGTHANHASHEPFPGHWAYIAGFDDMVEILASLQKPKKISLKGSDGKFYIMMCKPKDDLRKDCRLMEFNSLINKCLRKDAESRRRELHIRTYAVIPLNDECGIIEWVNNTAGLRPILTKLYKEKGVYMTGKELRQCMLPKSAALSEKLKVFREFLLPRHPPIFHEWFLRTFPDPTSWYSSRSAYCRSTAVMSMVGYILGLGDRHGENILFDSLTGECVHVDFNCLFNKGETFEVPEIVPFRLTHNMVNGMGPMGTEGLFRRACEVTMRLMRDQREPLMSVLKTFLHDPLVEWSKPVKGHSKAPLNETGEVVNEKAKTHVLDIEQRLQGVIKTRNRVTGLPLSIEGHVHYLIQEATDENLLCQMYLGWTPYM
# Target: full-length ATR (Homo sapiens, UniProt Q13535)
# Test: ATR Inhibition Assay (radioactive-phosphate incorporation)
# Conditions: read-out: ATR Ki; Ki(app); 5 nM full-length ATR, 10 μM [γ-33P]ATP, 800 μM target peptide, 25° C.
row,Ki [nM],SMILES
1,< 1,CN(Cc1ccc(-c2cc(-c3nc(-c4ccnc(C(C)(C)C#N)c4)cnc3N)on2)cc1)C1(C)COC1
2,< 1,CC(C)(C#N)c1cc(-c2cnc(N)c(-c3nnc(-c4ccc(N5CCC(N)C5)cc4)o3)n2)ccn1 (centres unmarked)
